Measurements: patent publication US6921840B1 (The Trustees of the University of Pennsylvania, priority 1999, dated 2005)

Amino acid sequences for entries named in this document (tags omitted).
UniProt P31652, whole entry: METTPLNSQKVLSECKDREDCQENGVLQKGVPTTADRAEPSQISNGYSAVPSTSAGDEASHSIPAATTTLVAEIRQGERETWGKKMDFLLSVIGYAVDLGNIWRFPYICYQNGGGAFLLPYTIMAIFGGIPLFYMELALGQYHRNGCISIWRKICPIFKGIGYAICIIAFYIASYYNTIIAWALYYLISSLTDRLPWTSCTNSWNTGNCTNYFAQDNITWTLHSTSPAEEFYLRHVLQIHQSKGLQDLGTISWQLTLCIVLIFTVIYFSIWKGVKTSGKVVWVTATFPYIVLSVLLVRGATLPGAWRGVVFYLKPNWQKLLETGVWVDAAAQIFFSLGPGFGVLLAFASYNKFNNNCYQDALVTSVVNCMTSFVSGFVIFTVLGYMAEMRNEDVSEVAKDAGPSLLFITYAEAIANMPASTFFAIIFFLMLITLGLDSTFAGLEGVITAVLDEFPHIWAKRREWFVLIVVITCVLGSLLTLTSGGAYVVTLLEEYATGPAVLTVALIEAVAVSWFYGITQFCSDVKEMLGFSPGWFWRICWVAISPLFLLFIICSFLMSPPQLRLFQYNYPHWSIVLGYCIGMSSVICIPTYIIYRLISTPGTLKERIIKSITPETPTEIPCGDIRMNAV

Experiments:
SERT [1] = target: T1, SERT (Rattus norvegicus, UniProt P31652); experiment: Competition binding with [125I]IDAM in rat frontal cortical homogenate; design: The frontal cortex of rat brain were dissected and homogenized in 30 volumes of buffer; from tissue; host or cells: rat frontal cortex membrane homogenates (male Sprague-Dawley rats, control and PCA-lesioned); details: for Ki for inhibition of [125I]IDAM binding: 0.2 nM [125I]IDAM, rat frontal cortical homogenate
Experimental: The homogenates were centrifuged at 20,000 g for 20 min. The resulting pellets were then re-suspended and recentrifuged. The final pellets were suspended in the same buffer and used for in vitro binding assays.
Various inhibitors were serially diluted with the buffer containing 0.1% BSA to overcome the stickiness and loss due to dilution. […] Incubation was carried out for 60 min at room temperature and then terminated by separation of bound from free radioligand by filtration through glass fiber filters (Schleicher & Schuell No. 25, Keene, N.H.) presoaked with 1% polyethylenimine. The filters were then washed three times with 3 ml of ice-cold […] Tris buffer and counted in a gamma counter (Packard 5000) with 70% efficiency. To study the effect of […], the homogenates were prepared in a sodium-free 50 mM Tris-HCl/5 mM KCl buffer.

SERT [2] = target: T1, SERT; details: 2 mg/kg i.v. 5 min prior to tracer; 60 min post-injection
Experimental: At 60 min post i.v. injection, the animals were sacrificed by cardiac excision while under ether anesthesia. The brains were rapidly removed, placed in embedding medium (Tissue Tek, Miles Laboratory, Elkhart, Ind.) and frozen with powdered dry ice. After reaching equilibrium at −20° C. consecutive 20 μm coronal sections were cut on a cryostat microtome (Hacker Instruments, Fairfield, N.J.) thaw-mounted on microscope slides, and air-dried at room temperature. […] The microscale standards were calibrated with tissue mash standards for the value conversion to nCi/mg protein. The exposed film was developed by a Kodak automatic film processor. […] The brain sections of the pretreated rats were processed following the same procedures described above for the normal untreated rats.

SERT [3] = target: T1, SERT; experiment: In vivo competitive binding: drug pretreatment before [125I]IDAM; details: 2 mg/kg i.v. 5 min prior to tracer; 60 min after tracer
Experimental: Experiments were performed using groups of 3-4 animals per study. […] The reduction of regional specific binding in the drug-pretreated rats was compared to the control animals with saline pretreatment.

Compound | Ki (SERT [1]) | Ki for inhibition of [125I]IDAM binding (SERT [1]) | effect of pretreatment on [125I]IDAM autoradiograms (SERT [2]) | effect of pretreatment on specific binding of [125I]IDAM in rat brain regions (SERT [3])
Fc1ccc([C@@H]2CCNC[C@H]2COc2ccc3c(c2)OCO3)cc1 [Paroxetine, paroxetine] | < 0.1 nM | low nanomolar range | significantly reduced | dramatically reduced; also recorded: blocked
CNCCC(Oc1ccccc1OC)c1ccccc1 (centres unmarked) [nisoxetine] | 20.2 nM | much less potent | no statistically significant difference | no significant inhibition

Entries after “also recorded” stand apart in the source; their conditions may differ.
